# Measurements as given in paper PMC6431625 (Frontiers in Endocrinology, 2019).
# Chains of the proteins cited; added tags and fusions are not shown. Lines headed by an entry give the natural chain unless they say otherwise; changes in a name come on top.
# UniProt P43088: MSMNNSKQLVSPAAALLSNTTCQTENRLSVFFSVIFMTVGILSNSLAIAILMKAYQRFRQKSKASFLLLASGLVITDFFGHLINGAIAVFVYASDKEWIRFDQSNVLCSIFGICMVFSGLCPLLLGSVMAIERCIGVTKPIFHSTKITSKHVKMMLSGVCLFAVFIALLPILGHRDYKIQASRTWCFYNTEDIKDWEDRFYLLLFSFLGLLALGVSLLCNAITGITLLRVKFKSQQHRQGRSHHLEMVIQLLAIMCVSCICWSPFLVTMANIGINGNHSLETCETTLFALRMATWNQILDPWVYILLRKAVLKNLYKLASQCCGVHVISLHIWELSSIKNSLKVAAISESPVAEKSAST
# What was measured:
# AT1R-Venus/FP-WT dimer [1] = target: T1, AT1R-Venus/FP-WT dimer (Homo sapiens, UniProt P30556+P43088); details: for EC50 value for β-arrestin 2-Rluc recruitment, range in words: HEK 293; for Allosteric effect of AT1R antagonist pretreatment on PGF2α-induced β-arrestin 2-RlucII recruitment / Allosteric effect of AT1R antagonist pretreatment on cloprostenol-induced β-arrestin 2-RlucII recruitment: pretreatment 1 μM for 30 min; for Allosteric effect of AT1R antagonist pretreatment on cloprostenol-induced β-arrestin 2-RlucII recruitment: cloprostenol 1 μM; for Effect of endocytosis inhibitor pretreatment on Ang II-induced β-arrestin 1/2-RlucII recruitment: pretreatment 30 min, sucrose 450 mM, phenylarsine oxide 2.5 μM, concanavalin A 0.4 g/L, Ang II 1 μM
# AT1R-Venus/FP-WT dimer [2] = target: T1, AT1R-Venus/FP-WT dimer; experiment: cell-based
# [3] = PGF2α 1 μM, AT1R-Venus/FP-WT dimer
Molecule,"EC50 value for β-arrestin 2-Rluc recruitment, range in words (AT1R-Venus/FP-WT dimer [1]; AT1R-Venus/FP-WT dimer)",Allosteric effect of AT1R antagonist pretreatment on PGF2α-induced β-arrestin 2-RlucII recruitment (AT1R-Venus/FP-WT dimer [1]; PGF2α 1 μM),Allosteric effect of AT1R antagonist pretreatment on cloprostenol-induced β-arrestin 2-RlucII recruitment (AT1R-Venus/FP-WT dimer [1]),also measured
CC(C)OC(=O)CCC/C=C\C[C@@H]1[C@@H](/C=C/C(F)(F)COc2ccccc2)[C@H](O)C[C@@H]1O [Tafluprost],low nanomolar to the picomolar range,–,–,–
O=C(O)CCC/C=C\C[C@@H]1[C@@H](/C=C/[C@H](O)C2Cc3ccccc3C2)[C@@H](F)C[C@@H]1O [AL-8810],micromolar range,–,–,–
CCCCC1=NC2(CCCC2)C(=O)N1Cc1ccc(-c2ccccc2-c2nnn[nH]2)cc1 [irbesartan],–,no allosteric effects,no allosteric effects,–
O=C(O)CCC/C=C\C[C@@H]1[C@@H](/C=C/[C@@H](O)COc2cccc(C(F)(F)F)c2)[C@H](O)C[C@@H]1O (racemic) [Fluprostenol],low nanomolar to the picomolar range,–,–,–
"OC[C@H]1O[C@@](CO)(O[C@H]2O[C@H](CO)[C@@H](O)[C@H](O)[C@H]2O)[C@@H](O)[C@@H]1O [Sucrose, sucrose]",–,–,–,Effect of endocytosis inhibitor pretreatment on Ang II-induced β-arrestin 1/2-RlucII recruitment (AT1R-Venus/FP-WT dimer [1]): potentiated
CCCc1nc2c(C)cc(-c3nc4ccccc4n3C)cc2n1Cc1ccc(-c2ccccc2C(=O)O)cc1 [telmisartan],–,allosterically inhibited,allosterically inhibited,–
CCCCc1nc(Cl)c(CO)n1Cc1ccc(-c2ccccc2-c2nn[nH]n2)cc1 [losartan],–,no allosteric effects,no allosteric effects,–
CCOc1nc2cccc(C(=O)O)c2n1Cc1ccc(-c2ccccc2-c2nc(=O)o[nH]2)cc1 [azilsartan],–,allosterically inhibited,no allosteric effects,–
CCOc1nc2cccc(C(=O)O)c2n1Cc1ccc(-c2ccccc2-c2nnn[nH]2)cc1 [candersartan],–,no allosteric effects,no allosteric effects,–
concanavalin A,–,–,–,Effect of endocytosis inhibitor pretreatment on Ang II-induced β-arrestin 1/2-RlucII recruitment (AT1R-Venus/FP-WT dimer [1]): potentiated
CC(C)OC(=O)CCC/C=C\C[C@@H]1[C@@H](CC[C@@H](O)CCc2ccccc2)[C@H](O)C[C@@H]1O [Latanoprost],low nanomolar to the picomolar range,–,–,EC50 (AT1R-Venus/FP-WT dimer [2]): 6.1 nM
"CCCCC[C@H](O)/C=C/[C@@H]1[C@@H](C/C=C\CCCC(=O)O)[C@@H](O)C[C@H]1O [PGF2α, prostaglandin F2α]",–,–,–,t1/2 of β-arrestin 2-RlucII recruitment (AT1R-Venus/FP-WT dimer [1]; [3]): 17 min; t1/2 of βarr1-RlucII recruitment (AT1R-Venus/FP-WT dimer [1]; [3]): 20 min
